{"source": "paper PMC6338342", "about": "(Journal of chromatography. B, Analytical technologies in …, 2016)", "settings": "male, Sprague-Dawley, rat, serum, po"}
{"smiles": "CC(C)=CCc1cc(-c2coc3cc(O)ccc3c2=O)ccc1O", "note": "[Neobavaisoflavone, neobavaisoflavone]", "values": [{"measurement": "MRT inf", "setting": "3 g/kg", "value": "10.5 ± 13.5", "unit": "h"}, {"measurement": "Tmax", "setting": "12 g/kg", "value": "1.83 ± 0.26", "unit": "h"}]}
